Tested on: white clover (Trifolium repens) seedlings
Test: Primary root length of white clover seedlings under salt stress (Example 3)
Format: in vivo
Conditions: porphyrin 0.01% v/v, 7 days after germination, mean ± standard error
Protocol: In this example, the effect of porphyrin compounds on the sensitivity to salt stress of seedlings was evaluated. […] For exposure to salt, the water was adjusted to contain 100 mM NaCl. […] Salt stress tolerance was measured by determining the reduction of primary root length by analysis of pictures with the Image J™ software. Root lengths (mm) were measured 7 days after the germination. The following Table 3 summarizes the results.

Substance: zinc tetraphenylporphyrin
- Root length (mm) (0 mM NaCl): 0.97 ± 0.06 mm
- Root length (mm) (100 mM NaCl): 0.92 ± 0.02 mm

— patent publication US20210352889A1, “MACROCYCLIC TETRAPYRROLE COMPOUNDS, COMPOSITIONS AND METHODS FOR INCREASING ABIOTIC STRESS RESISTANCE IN PLANTS” (SUNCOR ENERGY INC., priority 2018, published 2021)
